How the values were obtained:
[1] = In vitro metabolism assay, human liver microsomes, Assay Conditions A; conditions: 0.5 μM compound, 10 minutes, 37° C.
Experimental: Test compound is received as a 3.5 mM stock solution in 100 percent DMSO. Compound is diluted to create a 50 μM acetonitrile (ACN) solution containing 1.4% DMSO, which is then used as a 100× stock for incubation with microsomes. Each compound is tested in duplicate separately in each of three species in the Metabolic Stability-Human, Rat, and Mouse assay suite or as individual species in the Metabolic Stability-Dog or Metabolic Stability-Monkey suites. Compound, NADPH and liver microsome solutions are combined for incubation in three steps:
152 μL of liver microsome suspension, protein concentration of 1.1 mg/mL in 100 mM NaPi, pH 7.4, 6.6 mM MgCl2 buffer, is pre-warmed at 37° C.
• 1) 1.7 μL of 50 μM compound (98.6% ACN, 1.4% DMSO) is added to the same tube and pre-incubated at 37° C. for 5 minutes. • 2) The reaction is initiated by the addition of 17 μL of pre-warmed 10 mM NADPH solution in 100 mM NaPi, pH 7.4. • 3) Reaction components are mixed well, and 75 μL are immediately transferred into 150 μl quench/stop solution (zero-time point, T0). Reactions are incubated at 37° C. for 10 minutes and then an additional 75 μL aliquot is transferred into 150 μL quench solution. […]

The chains behind the UniProt entries cited, without tags or fusion partners.
UniProt O75469, whole entry: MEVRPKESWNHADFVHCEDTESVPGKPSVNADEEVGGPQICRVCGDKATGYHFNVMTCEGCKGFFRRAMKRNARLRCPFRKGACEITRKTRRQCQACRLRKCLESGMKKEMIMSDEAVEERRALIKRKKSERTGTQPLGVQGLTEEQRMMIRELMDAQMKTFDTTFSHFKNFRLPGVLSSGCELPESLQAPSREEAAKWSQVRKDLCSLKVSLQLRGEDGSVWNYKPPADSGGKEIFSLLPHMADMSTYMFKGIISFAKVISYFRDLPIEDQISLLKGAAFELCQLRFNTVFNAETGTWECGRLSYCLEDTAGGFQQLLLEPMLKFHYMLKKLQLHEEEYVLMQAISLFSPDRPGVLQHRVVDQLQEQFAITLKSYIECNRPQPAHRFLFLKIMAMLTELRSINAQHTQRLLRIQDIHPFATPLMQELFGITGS

Human PXR = Human PXR (Homo sapiens (Human), UniProt O75469); assay: PXR transactivation assay; conditions: HepG2 cells, CYP3A-Luc reporter; reported as EC20

For `CC(C)COC(=O)N[C@@H](C(=O)N1CC[C@](O)(c2ccc(Cl)cc2)C(C)(C)C1)C(C)C`, the “Human Liver Microsomal Metabolism % remaining (Assay Conditions A)” value [1] was 13% (A) and the “PXR EC20” value (Human PXR) was 1.9 µM.

Source: US8633226B2, “Piperidinyl derivative as a modulator of chemokine receptor activity” (Bristol-Myers Squibb Company, priority 2008, dated 2014)
